Experimental data from US20130115671A1, “ENZYMES FROM CONIDIOBOLUS BREFELDIANUS AND PROCESS FOR PREPARATION THEREOF” (Council of Scientific and Industrial Research, priority 2010, published 2013).

Columns and labels:
[1] = test system: protease from Conidiobolus brefeldianus MTCC 5185; assay: Stability of protease in presence of organic solvents at 37° C.; format: physicochemical; conditions: 20% (v/v) solvent
Description: (§1) This example illustrates the effect of water miscible as well as water immiscible organic solvents on stability of crude protease at 37° C. […] Samples were removed at different time intervals and residual activity was estimated. Sample without organic solvent served as control.

[2] = test system: protease from Conidiobolus brefeldianus MTCC 5185; assay: Stability of protease in presence of organic solvents at 28° C.; format: physicochemical; set-up: key to residual activity of protease, 0 h: % of initial activity with respective solvent (initial = 100%); conditions: crude protease, 20% (v/v) solvent
Description: as §1, with “28°” for “37°”, “control. Initial activity with respective solvents was taken as 100% (Table 17). […] (Table 17).” for “control.”

1-butanol
Residual Activity (%) of protease, 30 min ([1]; pH 7, 30 min): 47.57%
Residual Activity (%) of protease, 60 min ([1]; pH 7, 60 min): 30.60%
Residual Activity (%) of protease, 120 min ([1]; pH 7, 120 min): 33.00%
Residual Activity (%) of protease, 240 min ([1]; pH 7, 240 min): 13.53%
Residual Activity (%) of protease, 0 ([1]; crude protease, pH 7, 0 min): 100%
residual activity of protease, 0 h ([2]; 0 h): 100
residual activity of protease, 5 h ([2]; 5 h): 75.26
residual activity of protease, 12 h [2]: 39.93
residual activity of protease, 12 h ([2]; listed as butanol): around 40
